miR-21 FLuc – miR-21 reporter, rising signal | 340,000 tested, under 10 active | AID 2288 | HeLa miR-21 FLuc reporter, luciferase, 48 h | Potency, µM (titrated, usually from 38.3 µM); active = well fitted rising curve with a large enough effect; inconclusive = small, poorly fitted or top-dose-only effect; inactive = no such curve, though single readings can be large or run the other way;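 further: miR-21 action dims this reporter so a rising signal means less miR-21 action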
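HeLa miR-21-FLuc reporter line, endogenous miR-21; 2000 cells/well in DMEM/10% FBS; compound titration up to ~40uM final, 48 h, 37 degree Celsius; luciferase detection reagent, 15 min lysis, CCD luminescence.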
TDP1 block – inhibitors of human tyrosyl-DNA phosphodiesterase TDP1. AID 485290. recombinant TDP1, AlphaScreen DNA substrate cleavage. Potency, µM (top dose mostly 130 µM), hits mostly inhibitors. 350,000 tested, 0.28% active; further: nearly all actives have a fitted effect of over 40% in size
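Steps: enzyme plus compound, 15 min RT; add biotin/phosphotyrosine-FITC oligonucleotide (15 nM final), react 5 min; add donor/acceptor beads (10 ug/ml final), 10 min; read AlphaScreen. Tdp1 at 1 nM final.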
TDP1 cell noCPT – qHTS for Inhibitors of human tyrosyl-DNA phosphodiesterase 1 (TDP1): qHTS in cells in absence of CPT | Potency, µM (titrated, usually from 46.2 µM), hits mostly inhibitors | DT40 Tdp1-/- hTDP1 cells, no CPT, ATP luminescence, 48 h | 420,000 tested, 15% active; further: nearly all actives have a fitted effect of over 55% in size
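Luminescent ATP content (CellTiter-Glo) served as the growth readout. Knockout chicken DT40 cells expressing human TDP1 were exposed to compounds without camptothecin for a minimum 48 hr at 37 °C.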
uPA surface inh – inhibitors of cell surface uPA generation. AID 540303. cell surface uPA generation assay, qHTS. 330,000 tested, 0.31% active. Potency, µM (series often up to 38.3 µM), usual class: inhibitors; active means well fitted inhibition curve with a large enough effect; inconclusive means small, poorly fitted or top-dose-only effect; inactive means no such curve, though single readings can be large or run the other way; tested in mouse RAW 264.7 cells; further: nearly all actives have a fitted effect of over 55% in size
DT40 TDP1 CPT – growth inhibition of DT40 Tdp1-/-;hTDP1 cells with camptothecin (screen for TDP1 inhibitors) | chicken DT40 Tdp1-/-;hTDP1 cells + 20 nM CPT, ATP luminescence, 48 h | Potency, µM (top dose mostly 46.2 µM), usual class: inhibitors | 420,000 tested, 12% active; further: nearly all actives have a fitted effect of over 55% in size
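Chicken DT40 Tdp1-/- cells complemented with human TDP1, 400 cells/well, exposed to compounds plus 20 nM camptothecin for at least 48 h at 37 C; viability read as ATP content by CellTiter-Glo luminescence.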
Hits are given with their value; i = inactive; ? = inconclusive; nt = no result given. Compounds with a hit are over-represented: about 16% of the library has one in this group of screens. Unless noted, the call rests on the fitted dose curve; in most records, active means well fitted curve in the direction sought with a large enough effect; inconclusive means small, poorly fitted or top-dose-only effect, or another doubt; inactive means no such curve, though single readings can be large; an effect the other way counts as inactive or inconclusive.

SMILES | miR-21 FLuc | TDP1 block | TDP1 cell noCPT | uPA surface inh | DT40 TDP1 CPT
COc1cccc(CNS(=O)(=O)c2ccc(N3CCCCS3(=O)=O)cc2)c1 | i | i | 16µM | nt | 23µM
COCCCNS(=O)(=O)c1ccc(N2CCCCS2(=O)=O)cc1 | i | i | ? | nt | ?
COc1ccc(CCNS(=O)(=O)c2ccc(N3CCCCS3(=O)=O)cc2)cc1 | ? | i | 21µM | nt | 23µM
COc1cccc(CNS(=O)(=O)c2c(C)[nH]c(C)c2C(=O)N2CCCCC2)c1 | i | i | ? | i | 26µM
COc1ccccc1CCNS(=O)(=O)c1ccc(N2CCCCS2(=O)=O)cc1 | i | i | 21µM | nt | 23µM
Cc1ccc(CNS(=O)(=O)c2c(C)[nH]c(C)c2C(=O)N2CCCC2)cc1 | i | i | i | i | i
CCOC(=O)C(C(=O)NCc1ccc(C)cc1)c1ncc(C(F)(F)F)cc1Cl (configuration not stated) | i | i | ? | i | i
N=c1ccn(CC(=O)c2ccc(-c3ccccc3)cc2)cc1 | i | i | 2.9µM | ? | 4.6µM
CCc1cccc(CC)c1NC(=O)C(CC)n1nc(C)n2c(cc3cc(C)ccc32)c1=O (configuration not stated) | i | i | 21µM | nt | ?
CCC(C(=O)Nc1ccc(C(C)C)cc1)n1nc(C)n2c(cc3cc(C)ccc32)c1=O (configuration not stated) | i | i | ? | nt | 23µM
CCC(=O)c1c[nH]c(C(=O)NCc2ccco2)c1 | i | i | i | i | i
CC(C)CN1CCC(=O)N(CCC#N)CC1 | i | nt | i | i | i
Cc1cccn2c(=O)c3cc(S(=O)(=O)c4ccccc4)c(=N)n(Cc4cccnc4)c3nc12 | i | nt | 23µM | i | i
Cc1ccc(S(=O)(=O)c2cc3c(=O)n4cccc(C)c4nc3n(CC3CCCO3)c2=N)cc1C (configuration not stated) | i | i | 6.5µM | i | 5.8µM
N=c1c(S(=O)(=O)c2ccccc2)cc2c(=O)n3ccccc3nc2n1CC1CCCO1 (configuration not stated) | i | i | ? | i | ?
Cc1cccn2c(=O)c3cc(S(=O)(=O)c4ccccc4)c(=N)n(CC4CCCO4)c3nc12 (configuration not stated) | i | i | 12µM | i | ?
Cc1ccc(CN2CCc3nc(N4CCN(c5ccccc5F)CC4)ncc3C2)s1 | i | i | i | nt | i
Cc1cc2nc(C(F)(F)F)[nH]c(=O)n2n1 | i | i | i | i | i
O=[N+]([O-])c1cccc2ccc(/C=C/c3cccc(Br)c3)nc12 | i | i | ? | i | i
CCCCCC(=O)Nc1cccc(C2=NOC3(C2)C[C@@H](C(N)=O)N(C(=O)c2ccc(Cl)cc2)C3)c1 (some centres not stated) | i | i | ? | i | ?
COc1ccc(C(C#N)=C2C=CC(=NO)C=C2)cc1 | ? | i | 10µM | i | 5.2µM
CC(=O)ON=C1C=CC(=C(C#N)c2ccccc2)C=C1 | nt | nt | 3.3µM | nt | 2.3µM
CC(=O)OC(=C(OC(C)=O)c1ccccc1)c1ccccc1 | nt | nt | i | i | i
O=C(Nc1ccc2c(c1)C(N1CCOCC1)c1ccccc1-2)C(F)(F)F (configuration not stated) | nt | nt | i | i | i
C=CCn1c(-c2ccoc2)n[nH]c1=S | i | i | i | i | i
SMILES | miR-21 FLuc | TDP1 block | TDP1 cell noCPT | uPA surface inh | DT40 TDP1 CPT
COc1cc(NC(=O)c2ccco2)c(C(=O)OCC(=O)c2c[nH]c3ccccc23)cc1OC | i | i | 8.2µM | i | 15µM
CCOc1ccc(-c2cccc(NC(=O)c3ccco3)c2)nn1 | nt | i | 21µM | i | ?
Cc1nn2c(-c3cccc(NC(=O)c4ccco4)c3)nnc2c2ccccc12 | i | i | 21µM | i | 21µM
O=C(Nc1cccc(-c2nnc(-c3ccccc3)o2)c1)c1ccco1 | i | i | ? | i | i
COc1cc(NC(=O)c2ccco2)c(OC)cc1NC(=O)c1cc(OC)c(OC)c(OC)c1 | i | i | 21µM | i | ?
COc1ccc(-c2nnc(SCC(=O)N3CCCC3=O)n2N)cc1OC | nt | i | i | i | i
CCOc1cc(NC(=O)c2ccco2)c(OCC)cc1NC(=O)CCc1ccccc1OC | i | i | 7.3µM | i | 9.2µM
CCOc1cc(NC(=O)c2ccco2)c(OCC)cc1NC(=O)c1ccco1 | i | nt | 2.9µM | i | i
CCOc1cc(C#N)c(NC(=O)c2ccco2)cc1OCC | i | i | 6.5µM | i | 12µM
CCOc1cc(NC(=S)NC)c(OCC)cc1NC(=O)c1ccco1 | i | i | i | i | i
N#Cc1cn(N2CCCCC2)c(=O)[nH]c1=O | i | nt | i | i | i
CCCN(CC(=O)Nc1ccccc1OC)C(=O)c1ccccn1 | nt | i | i | i | i
CCc1noc(C)c1C(=O)Oc1ccc(N(C)S(=O)(=O)c2ccc(C)cc2)cc1 | nt | i | 2.6µM | ? | 18µM
CCc1noc(C)c1C(=O)Oc1ccc(N(C)S(=O)(=O)c2ccccc2)cc1 | nt | nt | 16µM | i | 23µM
Cc1cc(Br)c(NC(=O)COn2nnc3ccc(S(C)(=O)=O)cc32)c(Br)c1 | i | i | i | i | i
COc1ccccc1NS(=O)(=O)c1ccc2ccccc2c1 | i | nt | i | i | i
COc1ccc(C(C)(C)C)cc1NS(=O)(=O)c1cccc2cccnc12 | i | nt | 18µM | i | 26µM
COc1ccc(NS(=O)(=O)c2ccc3ccccc3c2)c2ncccc12 | i | nt | 6.5µM | i | 8.2µM
COc1cc(C(=O)NCc2nnc(SCC(=O)c3ccccc3)o2)cc(OC)c1OC | i | i | i | ? | i
CCCCCCC[C@@H](C/C=C/CCC(=O)O)OC | nt | i | i | i | i
CCCCCCC[C@@H](C/C=C/CCC(=O)N(C)C/C(=C/Cl)C/C(=C\C(=O)N1CC(OC)=CC1=O)OC)OC | nt | i | 1.8µM | i | 2.3µM
CCCCCCC[C@@H](C/C=C/CCC(=O)N(C)C/C(=C/Cl)C/C(=C\C(=O)N1C[C@H](O)CC1=O)OC)OC | nt | i | 9.2µM | ? | 9.2µM
Cc1cc(=O)oc(C)c1C(=O)N1CCN(C)CC1 | i | i | i | i | i
CCOc1ccc(NC(=O)C2CC(=O)N(CCc3ccccc3)C2)cc1OC (configuration not stated) | nt | i | i | i | i
COc1ccc(-n2c(SCc3ccccc3F)nc3c([nH]c4ccccc43)c2=O)cc1OC | i | i | 16µM | nt | 26µM
O=c1c2[nH]c3ccccc3c2nc(SCc2ccccc2F)n1-c1ccc(F)cc1 | i | i | ? | nt | ?
COc1cccc(-n2c(SCC(=O)N3CCc4ccccc43)nc3c([nH]c4ccccc43)c2=O)c1 | i | i | 10µM | nt | 7.3µM
COc1ccc(-n2c(SCc3ccccc3)nc3c([nH]c4ccccc43)c2=O)cc1 | i | i | 23µM | nt | ?
COc1cccc(-n2c(SCC(=O)N3CCc4ccccc43)nnc2-c2c[nH]c3ccccc23)c1 | i | i | 23µM | i | 16µM
